Results from ChEMBL document CHEMBL1129642, “Design, synthesis, and evaluation of 2 beta-alkenyl penam sulfone acids as inhibitors of beta-lactamases” (J Med Chem, 1996).

Protein sequences, listed by entry. Tags and fused reporters are not part of them. Lines headed by an entry give the natural chain unless they say otherwise; changes in a name come on top.
UniProt P62593, whole entry: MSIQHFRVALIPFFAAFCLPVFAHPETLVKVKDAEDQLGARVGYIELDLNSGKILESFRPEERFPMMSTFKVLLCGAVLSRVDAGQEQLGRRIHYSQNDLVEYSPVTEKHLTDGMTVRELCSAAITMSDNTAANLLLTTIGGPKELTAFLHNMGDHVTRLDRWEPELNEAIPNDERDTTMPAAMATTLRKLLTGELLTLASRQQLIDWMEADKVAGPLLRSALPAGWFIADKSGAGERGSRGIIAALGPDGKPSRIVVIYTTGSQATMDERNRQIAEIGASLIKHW
UniProt P24735: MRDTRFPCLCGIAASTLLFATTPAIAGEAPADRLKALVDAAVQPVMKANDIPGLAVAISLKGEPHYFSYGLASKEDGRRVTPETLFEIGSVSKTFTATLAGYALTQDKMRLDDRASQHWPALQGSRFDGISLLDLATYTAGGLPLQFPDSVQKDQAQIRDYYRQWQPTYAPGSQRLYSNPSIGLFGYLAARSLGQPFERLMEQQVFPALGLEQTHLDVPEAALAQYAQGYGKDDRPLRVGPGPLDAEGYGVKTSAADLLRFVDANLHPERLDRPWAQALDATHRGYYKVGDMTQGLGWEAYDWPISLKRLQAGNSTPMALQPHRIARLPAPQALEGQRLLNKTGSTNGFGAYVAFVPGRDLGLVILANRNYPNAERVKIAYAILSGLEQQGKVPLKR
UniProt P05364, whole entry: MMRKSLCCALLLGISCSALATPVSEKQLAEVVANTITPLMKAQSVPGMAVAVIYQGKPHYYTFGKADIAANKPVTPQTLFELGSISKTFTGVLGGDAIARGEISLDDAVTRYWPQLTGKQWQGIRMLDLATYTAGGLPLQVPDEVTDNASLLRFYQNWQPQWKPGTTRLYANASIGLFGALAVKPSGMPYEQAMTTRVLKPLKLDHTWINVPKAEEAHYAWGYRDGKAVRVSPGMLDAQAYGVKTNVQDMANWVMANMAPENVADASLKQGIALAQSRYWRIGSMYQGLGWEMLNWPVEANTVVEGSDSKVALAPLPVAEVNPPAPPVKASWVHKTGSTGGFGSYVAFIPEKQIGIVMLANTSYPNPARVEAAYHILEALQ
UniProt P05193: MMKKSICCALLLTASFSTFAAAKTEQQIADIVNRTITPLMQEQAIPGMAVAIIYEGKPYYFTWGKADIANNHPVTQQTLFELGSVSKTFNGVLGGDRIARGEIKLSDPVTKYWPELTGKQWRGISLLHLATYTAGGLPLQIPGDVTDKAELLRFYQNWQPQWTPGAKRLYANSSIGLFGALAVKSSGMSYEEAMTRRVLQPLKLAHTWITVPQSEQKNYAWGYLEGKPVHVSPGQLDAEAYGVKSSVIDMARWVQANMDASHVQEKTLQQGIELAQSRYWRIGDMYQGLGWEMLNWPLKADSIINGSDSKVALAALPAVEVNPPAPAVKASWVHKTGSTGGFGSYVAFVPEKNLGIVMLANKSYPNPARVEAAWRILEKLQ

Assays:
[1] = molecular target: T1, Penicillin-binding protein 4 (Staphylococcus aureus, UniProt P72355); assay: Compound was tested for inhibition of Penicillin-binding protein 4 from Staphylococcus aureus (Schoch).
T1 sequence (P72355 whole entry): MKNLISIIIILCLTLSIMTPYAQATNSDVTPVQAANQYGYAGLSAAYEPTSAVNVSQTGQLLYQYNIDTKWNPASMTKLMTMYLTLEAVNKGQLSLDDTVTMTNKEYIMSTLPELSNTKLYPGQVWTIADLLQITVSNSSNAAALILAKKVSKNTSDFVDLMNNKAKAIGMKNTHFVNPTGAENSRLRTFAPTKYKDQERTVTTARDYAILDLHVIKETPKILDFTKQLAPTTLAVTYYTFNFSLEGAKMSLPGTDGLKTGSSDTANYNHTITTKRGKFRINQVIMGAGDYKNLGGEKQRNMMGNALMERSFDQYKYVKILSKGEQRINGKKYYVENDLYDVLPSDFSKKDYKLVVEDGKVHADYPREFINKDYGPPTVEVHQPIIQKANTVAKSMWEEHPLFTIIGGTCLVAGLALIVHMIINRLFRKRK
Method in brief: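 Staphylococcus aureus Schoch membrane fragments served as the PBP source. Penicillin binding was measured with 14C-labeled benzylpenicillin, and inhibition of binding to the individual PBP is reported as IC50 in µM.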

Beta-lactamase TEM = Beta-lactamase TEM (Escherichia coli, UniProt P62593); assay: Compound was tested for inhibition of Beta-lactamase from RTEM-3
[2] = Compound was tested for inhibition of pTEM-3 from Escherichia coli in combination with Ceftriaxone (expressed in MIC).; format: functional
Method in brief: (§1)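 MICs determined by serial 2-fold dilution in Mueller-Hinton broth with an inoculum of approximately 10⁵ cfu/mL. The test compound was combined with ceftriaxone.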

[3] = Compound was tested for inhibition of pTEM-4 from Escherichia coli in combination with Ceftriaxone (not active).; format: functional; method in brief: as §1
[4] = molecular target: T2, Peptidoglycan D,D-transpeptidase MrdA (Escherichia coli K-12, UniProt P0AD65); assay: Compound was tested for inhibition of Penicillin-binding protein 2 from Escherichia coli.
T2 sequence (P0AD65 whole entry): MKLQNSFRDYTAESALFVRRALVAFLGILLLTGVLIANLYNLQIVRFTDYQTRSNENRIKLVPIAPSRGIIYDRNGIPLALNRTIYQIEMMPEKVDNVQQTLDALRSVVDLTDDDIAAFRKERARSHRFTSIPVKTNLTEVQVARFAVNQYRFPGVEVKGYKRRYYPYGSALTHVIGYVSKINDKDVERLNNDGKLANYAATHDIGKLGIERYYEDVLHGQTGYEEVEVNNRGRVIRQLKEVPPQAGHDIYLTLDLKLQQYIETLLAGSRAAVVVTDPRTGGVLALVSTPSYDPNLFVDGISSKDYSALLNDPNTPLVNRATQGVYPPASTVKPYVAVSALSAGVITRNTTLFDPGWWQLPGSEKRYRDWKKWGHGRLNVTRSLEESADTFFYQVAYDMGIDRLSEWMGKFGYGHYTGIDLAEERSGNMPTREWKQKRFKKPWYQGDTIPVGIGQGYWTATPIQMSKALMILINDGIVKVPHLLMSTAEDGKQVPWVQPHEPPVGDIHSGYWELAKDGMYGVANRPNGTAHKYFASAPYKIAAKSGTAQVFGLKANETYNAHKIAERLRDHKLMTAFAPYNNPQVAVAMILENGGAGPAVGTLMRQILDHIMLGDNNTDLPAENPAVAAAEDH

[5] = Compound was tested for inhibition of 1b Penicillin-binding protein from Escherichia coli.
Beta-lactamase [6] = molecular target: Beta-lactamase (Pseudomonas aeruginosa (strain ATCC 15692 / PAO1 / 1C / PRS 101 / LMG12228), UniProt P24735); assay: Compound was tested for inhibition of Beta-lactamase from Pseudomonas aeruginosa 18SH
Beta-lactamase [7] = molecular target: T3, Beta-lactamase (Enterobacter cloacae, UniProt P05364); assay: Compound was tested for inhibition of Beta-lactamase from Ent. cloacae 6300
[8] = Compound was tested for inhibition of TEM-1, class A of beta-lactamases.; format: functional, Escherichia coli
[9] = Compound was tested for inhibition of Penicillin-binding protein 1 from Staphylococcus aureus (Schoch).; parameters: species or system Streptococcus pneumoniae
[10] = molecular target: T4, Penicillin-binding protein 2 (Staphylococcus aureus, UniProt Q53729); assay: Compound was tested for inhibition of Penicillin-binding protein 2 from Staphylococcus aureus (Schoch).
T4 sequence (Q53729 whole entry): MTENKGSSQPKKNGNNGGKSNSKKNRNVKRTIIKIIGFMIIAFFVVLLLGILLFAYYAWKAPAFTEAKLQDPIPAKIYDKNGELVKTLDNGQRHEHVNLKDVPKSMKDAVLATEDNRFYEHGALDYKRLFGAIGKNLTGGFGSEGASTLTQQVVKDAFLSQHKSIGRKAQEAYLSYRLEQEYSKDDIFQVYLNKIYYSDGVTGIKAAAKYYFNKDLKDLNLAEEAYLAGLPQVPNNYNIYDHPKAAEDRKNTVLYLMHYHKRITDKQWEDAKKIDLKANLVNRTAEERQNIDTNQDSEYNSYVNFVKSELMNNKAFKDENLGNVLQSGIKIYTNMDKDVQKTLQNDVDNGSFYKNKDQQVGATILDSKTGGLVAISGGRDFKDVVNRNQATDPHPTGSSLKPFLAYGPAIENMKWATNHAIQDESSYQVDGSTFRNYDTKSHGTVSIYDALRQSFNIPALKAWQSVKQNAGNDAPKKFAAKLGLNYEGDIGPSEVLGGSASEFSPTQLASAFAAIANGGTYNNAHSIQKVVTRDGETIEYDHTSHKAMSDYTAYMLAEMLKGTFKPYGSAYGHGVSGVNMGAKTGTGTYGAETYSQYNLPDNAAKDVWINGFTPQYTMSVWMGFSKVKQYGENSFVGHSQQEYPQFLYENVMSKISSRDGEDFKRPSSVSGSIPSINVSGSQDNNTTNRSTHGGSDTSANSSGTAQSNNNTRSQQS

Beta-lactamase [11] = molecular target: T3, Beta-lactamase; assay: Compound was tested for inhibition of Beta-lactamase from Escherichia coli SN03
Beta-lactamase [12] = molecular target: Beta-lactamase (Citrobacter freundii, UniProt P05193); assay: Compound was tested for inhibition of Citrobacter freundii 1928, class C of Beta-lactamase
[13] = Compound was tested for inhibition of TEM-3, class A of beta-lactamases.; format: functional, Escherichia coli

## C[C@]1(/C=C\c2cncs2)[C@H](C(=O)[O-])N2C(=O)C[C@H]2S1(=O)=O.[Na+]
[1]
  IC50: 14 µM

## C[C@]1(C=CC#N)[C@H](C(=O)O)N2C(=O)C[C@H]2S1(=O)=O [Ro-481220]
Beta-lactamase TEM
  IC50: 130 nM
[2]
  MIC: < 0.25 mg/L
[3]
  MIC: 1 mg/L
[4]
  IC50: 34 µM
[5]
  IC50: 340 µM
Beta-lactamase [6]
  IC50: 380 nM
Beta-lactamase [7]
  IC50: 3.4 µM
[8]
  IC50: 1100 nM
[9]
  IC50: 200 µM
[10]
  IC50: 17 µM
Beta-lactamase [11]
  IC50: 1510 nM

## C[C@]1(/C=C/c2cncs2)[C@H](C(=O)O)N2C(=O)C[C@H]2S1(=O)=O
[1]
  IC50: 143 µM

## CCOC(=O)/C=C\[C@@]1(C)[C@H](C(=O)O)N2C(=O)C[C@H]2S1(=O)=O
Beta-lactamase [12]
  IC50: 370 nM

## C[C@]1(/C=C\C#N)[C@H](C(=O)O)N2C(=O)C[C@H]2S1(=O)=O
[2]
  MIC: < 0.25 mg/L
[13]
  IC50: 690 nM
[8]
  IC50: 1300 nM
